For “2-hydroxy-N,N,N-trimethylethan-1-aminium (2R)-2-(4-chlorophenyl)-2-[3-(trifluoromethyl)phenoxy]acetate [CB-0406 choline salt]”, the solubility (simulated intestinal fluid without pancreatin) was > 200 mg/mL and the “solubility in simulated intestinal fluid, fold greater than that of CB-0406” value (simulated intestinal fluid, relative to CB-0406) was ≥ 60 fold.

From US20210355066A1, “CB-0406 choline salt” (CymaBay Therapeutics, Inc., priority 2020, published 2021)
